This test has as its system DU-145. As to the kind of experiment: Cytotoxicity against human DU-145 cells assessed as reduction in cell growth incubated for 48 hrs by MTT assay. In general terms: Tetrazolium assays rely on reduction of a dye to a coloured formazan, in cell work by metabolically active cells.

For one compound, IC50 results are on record in ChEMBL document CHEMBL5512632, “Unlocking the potential of 1,4-naphthoquinones: A comprehensive review of their anticancer properties” (Eur J Med Chem, 2024).

With `Cc1c(C)c(O)c2c(c1O)C(=O)C=C(SCCCl)C2=O`, the IC50 – broadly, the concentration needed to halve the response being measured – amounted to 710 nM.
